Yeast mating assay B: variants of the scFv Ab-14

Source: Li et al. 2023 (doi:10.1038/s41467-023-39022-2), MIT Lincoln Laboratory and A-Alpha Bio; data file from the FLAb repository.

All variants were tested on one target, the spike HR2 peptide PDVDLGDISGINAS (SARS-CoV-2).

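Designed CDR sequences, proposed from the first random library and measured here. Their group label is 14L_GP_HC (GP: Gaussian process model; HC: hill climbing; a sequence that several methods proposed may carry one label only). The assay is AlphaSeq: two haploid yeast populations carry antibody and antigen on their surface. Pairs that bind mate more often; barcode pairs of the diploids are counted by sequencing. Scores were corrected for input abundance and mapped to Kd with protein pairs of known affinity run in the same pool. The assay was run in six technical replicates.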

Each scFv is VH, three GGGGS repeats, VL, as in the parent Ab-14, and differs from it in the CDRs of the light chain only.
VH: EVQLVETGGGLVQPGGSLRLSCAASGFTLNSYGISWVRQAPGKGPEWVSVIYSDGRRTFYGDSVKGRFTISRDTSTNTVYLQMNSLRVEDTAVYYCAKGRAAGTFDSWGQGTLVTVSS
VL: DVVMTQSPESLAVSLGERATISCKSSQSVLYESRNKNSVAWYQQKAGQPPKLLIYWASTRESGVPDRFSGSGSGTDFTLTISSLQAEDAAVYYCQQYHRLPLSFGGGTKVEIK

Changes read parent residue, position, new residue, counted from the first residue of the VL shown.
The read-out is the apparent dissociation constant on a log10 scale (nM): the lower, the stronger.
A mean of the replicates is given; it leaves out those without a signal.
A pair that was not seen in that replicate is written "n.d."; this usually means weak binding, but a binder can also be missed.

changes	replicates, log10 nM	mean log10 Kd (nM)	empty controls
K24C/S25L/S26M/W56H/T59L/S62D	0.46 0.94 0.09 0.17 0.43 0.57	0.44	0 of 18
Q27P/R34F/W56N/E61M	0.95 0.96 0.70 0.77 0.92 0.87	0.86	1 of 18 (2.69)
K24A/S28G/V29W/S33D/W56G/S62D	-0.37 -0.41 -0.45 -0.88 -0.47 -0.67	-0.54	1 of 18 (2.66)
V29F/K36F/S38N/W56G	0.24 0.08 0.05 -0.07 -0.16 0.00	0.02	2 of 18 (2.37)
S25T/S26P/S28G/W56G	0.21 0.19 -0.03 0.07 0.29 0.26	0.17	1 of 18 (3.03)
Q27I/V29Y/K36T/W56E/S62E	1.18 0.78 0.51 0.23 0.43 0.26	0.57	0 of 18
K24H/Q27P/L30A/W56N/E61C	0.30 0.09 0.15 0.10 0.40 0.25	0.21	1 of 18 (3.89)
S25L/S26R/V29T/K36D/W56N	1.47 0.97 0.93 0.00 0.77 1.11	0.87	0 of 18
S25F/Q27D/Y31L/S33D/N35T/W56N	0.47 0.32 0.32 0.29 0.36 0.39	0.36	1 of 18 (2.38)
S25V/V29W/Y31M/W56E/E61S	0.63 0.88 0.37 0.27 0.68 0.54	0.56	0 of 18
S25L/S26P/S28G/W56G/T59Y	-0.27 -0.25 -0.27 -0.29 -0.30 -0.09	-0.25	1 of 18 (2.24)
S26E/Q27C/S28G/W56G/S62D	-0.05 -0.26 -0.40 -0.47 -0.43 -0.33	-0.32	2 of 18 (4.22)
S25F/Q27L/Y31F/W56N	0.15 -0.05 -0.19 -0.46 -0.15 0.00	-0.12	2 of 18 (2.03)
S25C/S26Q/S38N/W56A/S62D	-0.03 -0.35 -0.59 -0.39 -0.44 -0.09	-0.32	0 of 18
Q27P/S28V/R34Q/W56N/E61M	0.16 -0.01 -0.11 -0.05 -0.07 0.15	0.01	2 of 18 (2.75)
S25V/S28A/V29F/Y31N/W56D/S58N	-0.11 -0.33 -0.36 -0.55 -0.38 0.03	-0.28	0 of 18
L30P/Y31M/W56D	0.00 -0.18 -0.16 -0.22 -0.24 -0.12	-0.15	6 of 18 (2.46)
S26Q/V29Q/L30G/W56H/S62D	0.27 0.26 0.14 0.11 0.45 0.28	0.25	2 of 18 (4.25)
K24H/Q27P/L30A/W56Q	0.30 0.29 0.22 0.16 -0.14 0.09	0.15	0 of 18
S25V/S28E/V29G/W56D	0.63 0.60 0.33 0.45 0.69 0.70	0.57	1 of 18 (2.10)
S25I/S33W/W56D	0.03 -0.13 -0.15 -0.25 -0.27 0.05	-0.12	1 of 18 (2.87)
Q27I/V29Y/W56E/T59Q	1.03 0.99 0.94 0.78 1.48 0.59	0.97	0 of 18
L30G/Y31M/K36A/W56D	0.47 0.08 0.38 0.12 0.27 0.74	0.35	1 of 18 (4.25)
K24Q/V29Q/W56G	0.41 0.09 0.30 0.42 0.36 0.14	0.29	0 of 18
Q27I/V29Y/Y31G/W56E/E61I	0.05 -0.03 -0.13 -0.16 -0.13 0.07	-0.05	1 of 18 (3.08)
S25F/N35T/K36S/S38M/W56N/S62D	1.42 1.39 1.06 0.95 1.99 1.13	1.32	2 of 18 (3.02)
L30K/Y31G/E32G/W56D	0.40 0.53 0.29 0.69 0.76 0.54	0.53	0 of 18
Q27P/R34H/W56Q/E61M	0.63 0.69 1.10 0.57 0.64 1.01	0.77	1 of 18 (2.62)
Q27I/V29Y/K36E/W56E/S62D	0.20 0.27 0.00 0.10 0.01 0.39	0.16	1 of 18 (2.32)
Q27P/V29W/W56G/S62N	-0.15 0.00 -0.22 -0.30 -0.28 -0.13	-0.18	0 of 18
S25N/Q27W/Y31F/W56D/E61S	0.00 -0.15 -0.25 -0.14 -0.09 -0.24	-0.15	0 of 18
S25M/S26E/S28G/V29Q/N37G/W56G/T59V	0.06 0.11 0.03 -0.25 0.22 0.09	0.04	4 of 18 (3.13)
V29F/W56D/Q96A	0.71 0.94 0.56 0.33 0.53 0.66	0.62	0 of 18
S25F/R34T/N35T/K36A/W56N	0.37 0.04 0.25 -0.08 -0.01 0.34	0.15	1 of 18 (2.31)
S25V/Q27T/V29Y/Y31L/W56E	-0.22 -0.53 -0.47 -0.38 -0.60 -0.30	-0.42	0 of 18
S25V/Q27I/V29Y/Y31L/W56E/S58D	0.19 -0.05 -0.08 -0.03 0.09 -0.09	0.01	0 of 18
L30A/Y31M/K36A/W56D	n.d. n.d. n.d. n.d. 1.43 n.d.	1.43	0 of 18
Q27G/V29Y/W56E/L100M	0.50 1.22 0.64 0.09 0.04 0.44	0.49	0 of 18
S25V/S28L/Y31M/W56E	-0.50 -0.71 -0.73 -0.50 -0.19 -0.40	-0.50	0 of 18
S25L/S28K/S33H/N35T/W56N	0.79 0.82 0.48 0.85 0.55 0.75	0.71	1 of 18 (3.68)
S28V/V29F/W56G	0.54 0.47 0.44 0.16 0.23 0.06	0.32	0 of 18
V29R/W56G/P101T	2.30 1.76 1.90 2.78 2.29 2.37	2.23	0 of 18
S25M/S28K/L30K/Y31F/W56D	-0.20 -0.50 -0.28 -0.38 -0.30 -0.09	-0.29	0 of 18
S25L/S26E/V29H/L30N/W56N	-0.13 -0.11 -0.12 -0.17 -0.33 -0.28	-0.19	0 of 18
S25A/Q27P/V29W/S33D/N35V/W56G	0.26 0.38 0.03 -0.15 -0.04 0.12	0.10	0 of 18

The opening 4 entries, copied out:

changes	replicates, log10 nM	mean log10 Kd (nM)	empty controls
K24C/S25L/S26M/W56H/T59L/S62D	0.46 0.94 0.09 0.17 0.43 0.57	0.44	0 of 18
Q27P/R34F/W56N/E61M	0.95 0.96 0.70 0.77 0.92 0.87	0.86	1 of 18 (2.69)
K24A/S28G/V29W/S33D/W56G/S62D	-0.37 -0.41 -0.45 -0.88 -0.47 -0.67	-0.54	1 of 18 (2.66)
V29F/K36F/S38N/W56G	0.24 0.08 0.05 -0.07 -0.16 0.00	0.02	2 of 18 (2.37)

The authors averaged sequences with at least three values out of six and counted those with two or fewer as poor binders.
Of ten entries with the parent sequence, four were seen in most replicates (averages 0.34 to 2.37), three in one and three in none, so single entries are noisy.
The range of this assay differs from that of the first round, and the authors advise against merging the two.
Background: pairings of all light chain designs with three empty control strains gave a value in 4% of cases (median 2.64, 5th percentile 1.59). Values in that range, when seen in few replicates, are hard to tell from nonspecific mating. For each scFv, signals with the empty controls are counted beside the result, with their mean in brackets.